For orientation: IC50 means the concentration at which inhibition is half-maximal. Lower therefore signals inhibition by little substance.

The chains behind the UniProt entries cited, without tags or fusion partners.
UniProt P11712, whole entry: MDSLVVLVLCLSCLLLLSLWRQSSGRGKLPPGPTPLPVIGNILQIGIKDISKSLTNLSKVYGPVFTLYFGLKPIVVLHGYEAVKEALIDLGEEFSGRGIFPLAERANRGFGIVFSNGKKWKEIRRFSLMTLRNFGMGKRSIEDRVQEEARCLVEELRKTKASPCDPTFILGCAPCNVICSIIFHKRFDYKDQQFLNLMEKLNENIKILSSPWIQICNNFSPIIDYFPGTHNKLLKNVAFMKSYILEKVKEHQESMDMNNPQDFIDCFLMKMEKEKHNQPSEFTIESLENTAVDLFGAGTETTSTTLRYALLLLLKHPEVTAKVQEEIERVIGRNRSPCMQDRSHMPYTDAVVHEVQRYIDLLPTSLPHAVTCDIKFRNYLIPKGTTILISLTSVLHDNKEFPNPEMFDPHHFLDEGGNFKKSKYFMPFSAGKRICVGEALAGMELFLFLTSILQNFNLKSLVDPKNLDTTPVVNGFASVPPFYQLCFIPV

This assay addresses Cytochrome P450 2C9 (Homo sapiens, UniProt P11712).

The compound `Cc1n[nH]c2ccc(-c3cc(OC[C@@H](N)Cc4c[nH]c5ccccc45)cnc3-c3ccoc3)cc12` had an IC50 of 500 nM.

The values above are taken from ChEMBL document CHEMBL1153227, “2,3,5-Trisubstituted pyridines as selective AKT inhibitors. Part II: Improved drug-like properties and kinase selectivity from azaindazoles” (Bioorg Med Chem Lett, 2010).
